A value given as a limit tells only on which side of the number the result lay.

The data set has as its system CRL-8155 human lymphocytic cells. The following applies: CRL-8155 cell line, 48 hours.

`CCOc1ccc2cc(-c3nn(C(C)C)c(N)c3C(N)=O)ccc2n1` [Compound 18] showed a cytotoxicity of over 40 µM.

`CC(C)(C)n1nc(-c2cnc3cc(OC4CC4)ccc3c2)c(C(N)=O)c1N` [Compound 34] gave a cytotoxicity of over 40 µM. To `CC(C)(C)n1nc(-c2cnc3cc(OC4CCC4)ccc3c2)c(C(N)=O)c1N` [Compound 36] belongs over 40 µM.
